Reference: article PMC11176561 (Computational and Structural Biotechnology Journal, 2024)

System: ceftazidime-resistant E. coli E24
Assay: E. coli-induced mouse bacteremia
Settings: ELISA, 8 h; TS-CATH 2.5, 5, 10 mg/kg or ceftazidime 5 mg/kg; compared with model

SMILES: CC(C)(O/N=C(\C(=O)N[C@@H]1C(=O)N2C(C(=O)[O-])=C(C[n+]3ccccc3)CS[C@H]12)c1csc(N)n1)C(=O)O [Ceftazidime]
- E. coli-induced secretion levels of TNF-α, IL-1β, and IL-6 in the serum: little effect
